Source: PubChem BioAssay
HIV Env fusion: inhibitors of HIV Env-mediated cell fusion; HeLa-JRFL Env/CEM21 cell fusion, luciferase; hit rate 1.1% among 360,000; AID 651610; inhibition, % at 12.3 µM;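 active = mean replicate inhibition score of at least 50 and every replicate individually at or above 50; inconclusive = only one of the two criteria met; inactive = mean below 50 and not all replicates reaching 50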;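 note: 0% = plate neutral controls and 100% = maraviroc near 300 nM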
Cneo AK release: causes C. neoformans cell lysis; lysis activity, % at 15 µM; adenylate kinase release luminescence, 4 h; normalised: neutral wells 0, clomiphene wells 100; hit rate 0.2% among 360,000; AID 651654;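 active = mean lysis activity across replicates of at least 80%, whatever share of replicates individually reach that level; inactive = mean lysis activity below 80%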
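Material – log-phase Cryptococcus neoformans yeast cells · Input – 5 × 10^6 yeast cells/mL · Medium – fresh YPD growth medium · Doses – single compound concentration per well · Timing – static 4 h at 37 °C with compound, 1 h detection · Detection – adenylate kinase release luminescence · Read-out – signal increase indicating cell lysis · Control set – Clomiphene as positive lysis control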
FN deposit inh: fibronectin deposition inhibition. inhibition, % at 12.6 µM. hit rate 0.086% among 350,000. AH1F fibroblasts, Alexa488-fibronectin deposition fluorescence, overnight;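 active = mean inhibition across replicates of 30% or more, regardless of how many single replicates reach that level; inconclusive = mean under 30% yet at least half of replicates reach 30%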;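 note: positive control wells lacked labelled fibronectin entirely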
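Material: AH1F fibroblasts assembling fluorescent fibronectin matrix; amount: 10000 AH1F cells/well; medium: DMEM, 2% serum; reagent: Alexa488-fibronectin, 24 nM final in well; dosing: single compound dose, delivered by pin transfer; incubation: 1 h adhesion, overnight exposure; detection: fluorescence after three HBSS washes, excitation 485 nm, emission 525 nm; measure: fibronectin deposition inhibition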
miR-122 sensor: miR-122 inhibition in Huh7 cells | activation (reporter increase), % at 12.5 µM | Huh7 miR-122 Renilla luciferase sensor, 48 h; neutral wells = 0, positive control = 100 | hit rate 0.3% among 340,000;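 active = mean replicate activation score at least 90 and every replicate individually at or above 90; inconclusive = only one of the two criteria met; inactive = neither criterion met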;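 note: higher luciferase means less miR-122 activity so hits act as miR-122 inhibitors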
PGC1a acetyl inh: PGC1a acetylation modulation, inhibitor mode; U2OS PGC1a acetylation, AlphaScreen anti-acetyl-lysine; with virally co-expressed GCN5 acetyltransferase; inhibition, % at 15.6 µM; hit rate 0.17% among 350,000;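 active = every replicate shows inhibition of at least 40%; inconclusive = mean inhibition at least 40% but some replicate below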;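 note: 0% = neutral control wells and 100% = positive control wells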
UUG fidelity: alters start codon recognition fidelity in yeast | S. cerevisiae UUG-firefly luciferase reporter, luminescence/redox ratio | activity score, % at 18.7 µM | 350,000 compounds, 0.13% hits | AID 602363;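 active = replicate mean at a twofold rise or more, about +100% in these data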;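 note: firefly luciferase made from a UUG start codon reports start codon fidelity; reporter light over untreated wells divided by growth signal over untreated wells; some hits fall short of that in this replicate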
Numbers without * were called inactive; i = inactive; ? = inconclusive; nt = no result; [ ] = remark or other dose. Sampled rows, rich in hits. Any-hit rate of the full collection: about 1.5%.

Structure,HIV Env fusion,Cneo AK release,FN deposit inh,miR-122 sensor,PGC1a acetyl inh,UUG fidelity
O=C1c2ccccc2C2=Nc3ccccc3SC(c3cccc(F)c3)C12 (stereo not given),-103,5,23,246*,nt,-21
O=C(COc1ccc2c(c1)C(=O)CC1(CCCCC1)O2)NCc1ccccc1,20,5,-3,220*,nt,-12
CCCCn1nc(C(=O)NCC(=O)Nc2c(C)cccc2C)c2ccccc2c1=O,5,-1,1,-8,-21,0
COc1ccccc1C(=O)Nc1ccc2c(c1)C(=O)N(C)C[C@@H](OC)[C@H](C)CN(C)[C@@H](C)CO2,2[16.7 µM],112*,6,nt,-48,nt
CO[C@@H]1CN(C)C(=O)c2cc(NC(=O)Nc3ccc(Cl)cc3)ccc2OC[C@H](C)N(C)C[C@H]1C,60*[16.7 µM],nt,-4,nt,4,nt
Nc1nc(NCc2ccccc2)nc(NCCO)c1[N+](=O)[O-],63*,-3,7,-7,-5,-8
O=C(CCNS(=O)(=O)c1ccccc1)N1CCCCCCC1,66*,nt,2,nt,nt,nt
O=C(CCNS(=O)(=O)c1ccccc1)N1CCCCCC1,-8,-1,2,1,-4,-18
Cc1cc(C(=O)Nc2ccc3c(c2)C(=O)N(C)[C@@H]2CC[C@@H](CC(=O)N[C@@H](C)c4ccccc4)O[C@@H]2CO3)no1,22[16.7 µM],83*,9,-17[16.7 µM],9,24
Cc1cc(C(=O)Nc2ccc3c(c2)C(=O)N(C)[C@H]2CC[C@@H](CC(=O)N[C@@H](C)c4ccccc4)O[C@H]2CO3)no1,5[16.7 µM],100*,-3,-33[16.7 µM],3,22
Cc1cc(C(=O)Nc2ccc3c(c2)C(=O)N(C)[C@H]2CC[C@H](CC(=O)N[C@@H](C)c4ccccc4)O[C@H]2CO3)no1,26[16.7 µM],7,0,-50[16.7 µM],1,12
O=S(=O)(Nc1ccc(Cl)cc1NS(=O)(=O)c1ccccc1)c1ccccc1,-29,-1,7,13,-4,0
CC(=O)Oc1ccc2cc(-c3nc4ccccc4n3C)c(=O)oc2c1,nt,2,nt,-2,8,-21
Cc1ccc(F)cc1C(=O)N1CCCCC1c1cc(C(=O)NCc2ccccc2)no1 (stereo not given),-1,0,-5,-5,-4,-5
FC(F)(F)c1cnc(N2CCCN(C(=S)Nc3ccccc3)CC2)c(Cl)c1,87*,16,-13,-37,3,-21
FC(F)(F)c1cnc(N2CCN(C(=S)NCc3ccccc3)CC2)c(Cl)c1,15,nt,-2,nt,nt,nt
COc1cccc(NC(=O)CN(c2ccccc2OC)S(=O)(=O)c2cccs2)c1,64*,0,2,-3,-1,-11
COc1ccccc1N(CC(=O)N(CC(C)C)CC(C)C)S(=O)(=O)c1cccs1,15,-2,32*,23,-25,5
COc1ccccc1N(CC(=O)Nc1ccccc1)S(=O)(=O)c1cccs1,-1,0,-5,5,-3,-13
CS(=O)(=O)Nc1cccc(C2=NN(S(C)(=O)=O)C(c3ccc4c(c3)OCO4)C2)c1 (stereo not given),-52,nt,7,nt,nt,nt
C[C@@H]1CN([C@@H](C)CO)C(=O)CCCn2nncc2CO[C@@H]1CN(C)C(=O)Nc1ccc(N2CCN(C)CC2)cc1,nt,-1,6,-2,3,-11
c1csc(C(c2nnnn2C2CCCC2)N2CCOCC2)c1 (stereo not given),nt,-6,nt,9,1,-11
Clc1ccc(CN(CC2CCCO2)C(c2cccs2)c2nnnn2C2CCCC2)cc1 (stereo not given),117*,-1,8,23,-14,-7
CCN(Cc1ccccc1)C(c1ccccn1)c1nnnn1C1CCCCC1 (stereo not given),nt,4,nt,-13,-4,0
CCN(Cc1ccccc1)C(c1cccs1)c1nnnn1C1CCCCC1 (stereo not given),96*,nt,-7,nt,-1,nt

Compound profiles, as listed above. Values in the order: HIV Env fusion, Cneo AK release, FN deposit inh, miR-122 sensor, PGC1a acetyl inh, UUG fidelity
O=S(=O)(Nc1ccc(Cl)cc1NS(=O)(=O)c1ccccc1)c1ccccc1 across the screens: -29, -1, 7, 13, -4, 0
C[C@@H]1CN([C@@H](C)CO)C(=O)CCCn2nncc2CO[C@@H]1CN(C)C(=O)Nc1ccc(N2CCN(C)CC2)cc1 across the screens: nt, -1, 6, -2, 3, -11
Cc1cc(C(=O)Nc2ccc3c(c2)C(=O)N(C)[C@H]2CC[C@H](CC(=O)N[C@@H](C)c4ccccc4)O[C@H]2CO3)no1 across the screens: 26[16.7 µM], 7, 0, -50[16.7 µM], 1, 12
O=C(CCNS(=O)(=O)c1ccccc1)N1CCCCCC1 across the screens: -8, -1, 2, 1, -4, -18
CS(=O)(=O)Nc1cccc(C2=NN(S(C)(=O)=O)C(c3ccc4c(c3)OCO4)C2)c1 (stereo not given) across the screens: -52, nt, 7, nt, nt, nt

Other compounds follow:
Structure,HIV Env fusion,Cneo AK release,FN deposit inh,miR-122 sensor,PGC1a acetyl inh,UUG fidelity
Clc1ccccc1CN(Cc1ccccc1)C(c1cccs1)c1nnnn1C1CCCC1 (stereo not given),83*,-1,-1,41,-25,3
CC(C)(C)n1nnnc1C(c1cccs1)N(Cc1cccnc1)Cc1ccccc1Cl (stereo not given),36,-1,nt,2,-9,-1
CCc1nnc(NC(=O)c2cccc(S(=O)(=O)N3CCN(C(C)=O)CC3)c2)s1,-11,1,-1,nt,nt,-44
COCc1cc(C)nc(OCC(=O)N/N=C/c2ccccc2O)c1C#N,2,nt,-6,nt,nt,nt
CC(C)(C)NC(=O)C(c1ccccc1)N(C(=O)C1CSC(=O)C1)c1ccccc1 (stereo not given),65*,4,6,-2,nt,-17
Cc1ccc(S(=O)(=O)Nc2cc(C)c(O)c(S(=O)(=O)c3ccc(C)cc3)c2)cc1,-18,nt,1,140*,-13,-3
Cc1cc(NS(=O)(=O)c2ccccc2)cc(Cl)c1O,-31,-1,5,?,2,-7
CN(C)/C=N/C1=C(C#N)C(c2ccc(Br)cc2)c2ccc3ccccc3c2O1 (stereo not given),59*,1,-4,2,-1,-10
COc1cc(C2C(C#N)=C(N)Oc3c2ccc2ccccc32)ccc1OCC(=O)Nc1ccccc1C (stereo not given),21,0,0,-21,nt,-5
Cc1ccccc1CSc1nnc(-c2ccco2)n1Cc1ccco1,11,nt,7,17,99*,nt
O=C(CN1CCOCC1)NCC[C@@H]1CC[C@@H](NC(=O)Nc2ccc(F)cc2)[C@H](CO)O1,4[16.7 µM],0,nt,nt,11,-5
COc1ccc(CCNC(=O)CSc2c[nH]c3ccccc23)cc1OC,-7,0,7,10,-9,8
CCCCCCNS(=O)(=O)c1ccc(Cl)s1,-14,3,10,209*,nt,-9
O=S(=O)(NCCCN1CCOCC1)c1ccc(Cl)s1,3,nt,-3,nt,0,nt
CO[C@H]1CN(C)C(=O)c2ccc(NS(=O)(=O)c3ccc(Oc4ccccc4)cc3)cc2OC[C@H](C)NC[C@@H]1C,-17[16.7 µM],nt,-10,nt,8,nt
Cc1nc2ccccc2n1CC(=O)NCc1ccccc1,83*,1,-3,-4,-6,-18
CCn1c(SCC(=O)NCC2CCCO2)nc2c([nH]c3ccccc32)c1=O (stereo not given),24,-2,-5,nt,nt,-8
CCn1c(SCC(=O)NCCc2ccccc2)nc2c([nH]c3ccccc32)c1=O,67*,1,-2,-4,2,-15
CCn1c(SCC(=O)NCCc2ccc(OC)c(OC)c2)nc2c([nH]c3ccccc32)c1=O,70*,0,-12,1,nt,-14
O=C1[C@@H](Oc2ccccc2)[C@@H](c2ccncc2)N1c1ccccc1,i,-1,11,-1,17,-12
